Measurements from PubChem BioAssay AID892 (National Center for Advancing Translational Sciences (NCATS), 2007).
Only a part is listed here, and it is no random draw. Activity calls are given as the source filed them. The call rests on the fitted dose curve; in most records, active means well fitted inhibition curve with a large enough effect; inconclusive means small, poorly fitted or top-dose-only effect; inactive means no such curve, though single readings can be large or run the other way.

Chains of the proteins cited; added tags and fusions are not shown.
UniProt P38398, whole entry: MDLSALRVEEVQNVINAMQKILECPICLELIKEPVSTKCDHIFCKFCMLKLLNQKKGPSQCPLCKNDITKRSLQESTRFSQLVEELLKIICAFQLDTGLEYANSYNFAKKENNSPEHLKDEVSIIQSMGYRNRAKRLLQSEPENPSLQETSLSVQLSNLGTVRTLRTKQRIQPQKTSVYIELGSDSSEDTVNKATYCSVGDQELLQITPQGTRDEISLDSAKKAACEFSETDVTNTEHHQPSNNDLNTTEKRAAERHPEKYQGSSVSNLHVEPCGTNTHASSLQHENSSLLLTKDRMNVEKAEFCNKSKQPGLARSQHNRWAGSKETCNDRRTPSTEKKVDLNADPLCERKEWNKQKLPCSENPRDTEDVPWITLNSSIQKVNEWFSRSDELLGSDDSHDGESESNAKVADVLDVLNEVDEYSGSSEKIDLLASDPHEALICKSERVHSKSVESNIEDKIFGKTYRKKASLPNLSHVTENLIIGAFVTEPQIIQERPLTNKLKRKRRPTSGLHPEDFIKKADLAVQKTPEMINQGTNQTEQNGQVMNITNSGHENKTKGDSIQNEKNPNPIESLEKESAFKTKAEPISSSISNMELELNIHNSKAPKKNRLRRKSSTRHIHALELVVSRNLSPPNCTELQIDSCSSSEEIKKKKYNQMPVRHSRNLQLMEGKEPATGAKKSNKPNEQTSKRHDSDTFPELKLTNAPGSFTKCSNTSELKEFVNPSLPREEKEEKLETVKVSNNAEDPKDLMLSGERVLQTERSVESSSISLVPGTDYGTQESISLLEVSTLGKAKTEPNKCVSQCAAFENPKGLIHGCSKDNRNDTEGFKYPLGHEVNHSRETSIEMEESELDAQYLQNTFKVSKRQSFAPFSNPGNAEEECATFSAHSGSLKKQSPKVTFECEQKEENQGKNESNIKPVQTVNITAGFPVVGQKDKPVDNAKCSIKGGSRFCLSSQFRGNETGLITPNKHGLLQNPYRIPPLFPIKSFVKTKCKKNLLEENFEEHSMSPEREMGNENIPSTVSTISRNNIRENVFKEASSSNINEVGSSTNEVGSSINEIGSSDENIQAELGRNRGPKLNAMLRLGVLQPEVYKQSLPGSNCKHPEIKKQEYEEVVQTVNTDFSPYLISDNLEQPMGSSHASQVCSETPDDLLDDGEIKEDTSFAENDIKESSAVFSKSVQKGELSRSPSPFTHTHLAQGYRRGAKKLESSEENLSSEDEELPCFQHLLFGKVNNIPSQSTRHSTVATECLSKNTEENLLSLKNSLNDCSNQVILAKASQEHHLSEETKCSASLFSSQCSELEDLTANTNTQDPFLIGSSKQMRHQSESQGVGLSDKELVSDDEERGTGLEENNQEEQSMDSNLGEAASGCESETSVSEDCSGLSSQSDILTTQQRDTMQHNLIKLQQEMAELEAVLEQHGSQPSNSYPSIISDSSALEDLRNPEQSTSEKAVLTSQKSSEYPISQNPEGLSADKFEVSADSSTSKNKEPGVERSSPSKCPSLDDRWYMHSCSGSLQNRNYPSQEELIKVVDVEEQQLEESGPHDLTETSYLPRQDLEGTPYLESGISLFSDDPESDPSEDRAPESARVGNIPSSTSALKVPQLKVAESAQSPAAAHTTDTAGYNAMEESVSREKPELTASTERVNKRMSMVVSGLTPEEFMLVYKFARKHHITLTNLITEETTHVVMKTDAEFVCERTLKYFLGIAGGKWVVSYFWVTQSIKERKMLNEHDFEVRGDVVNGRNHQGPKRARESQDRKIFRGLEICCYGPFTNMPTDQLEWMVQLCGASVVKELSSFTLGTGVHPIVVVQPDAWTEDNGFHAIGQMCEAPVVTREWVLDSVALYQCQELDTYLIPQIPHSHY

The molecules below were run against Breast cancer type 1 susceptibility protein (Homo sapiens) (UniProt P38398) (assay: qHTS Assay for Inhibitors of BRCT-Phosphoprotein Interaction (Red Fluorophore)). Settings: BRCT-phosphopeptide binding, red fluorescence polarization; at 76.9 µM (top of the series) unless noted.
Procedure: NIH Molecular Libraries Screening Centers Network [MLSCN]
NIH Chemical Genomics Center [NCGC]
PI Name: Natarajan, Amarnath; University of Texas
A complex of BRCT (C-terminal portion of BRCA1, MW ~35 kDa, His-tagged) and fluorescently labeled pBACH1 phosphorylated 10 aa peptide fragment of BACH1, a helicase implicated in DNA repair, is incubated with library members. Inhibitors of BRCT-pBACH1 binding are detected by a decrease in the fluorescence polarization (FP) of the fluorophore. In order to minimize the effect of fluorescence artifacts and to increase the overall robustness of the screen, the compound library members were incubated in separate reactions with rhodamine-labeled probe-protein complexes. Protein and labeled probes were supplied by Dr. Amarnath Natarajan, Department of Pharmacology and Toxicology, University of Texas Medical Branch Galveston, TX.
Assay Buffer: 16mM Na2HPO4, 4 mM NaH2PO4, 150 mM NaCl, 1 mM EDTA, 1 mM DTT, 0.02% NaN3, and 0.01% Tween 20 at pH 7.3.
Assay Controls: 100 nM TAMRA labeled decapeptide dispensed into columns 3 and 4 to generate negative control (full inhibition of
binding, -100 % activity). 100 nM labeled decapeptide/100 nM protein in columns 1, 2, 5 - 48. Titration of unlabeled decapeptide control (from 10 mM, then 1:2 dilution in duplicate) pin-transferred to column 2, rows 1 to 16. Column 1 is neutral.
Three uL of reagents were dispensed to 1536-well Greiner black solid-bottom plates. Compounds and controls (23 nL) were transferred via Kalypsys PinTool. The plates were incubated for 12 min at room temperature, and then read on ViewLux (Perkin-Elmer) High-throughput CCD imager using BODIPY for the rhodamine-labeled decapeptide probe polarization filter sets. During dispense, reagent bottles were kept submerged into 4 deg C water bath and all liquid lines were covered with aluminum foil to minimize probe and protein degradation. All screening operations were performed on a Kalypsys robotic system (Kalypsys, Inc., San Diego, CA) containing one RX-130 and two RX-90 anthropomorphic robotic arms. The timing and order of assay plates passing through the screening system were adjusted such that each compound library plate was assayed against the fluorescein- and rhodamine-labeled assay systems at immediately adjacent time points.
On the % scale 0 is the no-effect control and ±100 the full control effect.

| Compound | activity change, negative = inhibition |
| --- | --- |
| O=[N+]([O-])[O-].[NH4+] | inactive: -1.37% |
| COc1ccccc1OP(C)(=O)Nc1ccc(C)cc1 (configuration not stated) | inactive: 0.68% |
| Cc1ccc(NP(C)(=O)Oc2ccccc2)c(C)c1 (configuration not stated) | inactive: -2.41% |
| N1=C(c2nnc(-c3nn[nH]n3)nn2)NNN1 | inactive: -4.02% [at 15.4 µM] |
| CP(=S)(Nn1cnnc1)Oc1ccccc1 (configuration not stated) | inactive: -1.24% |
| CP(=O)(NC(=O)Nc1ccccc1)Oc1ccccc1 (configuration not stated) | inactive: 0.0306% |
| CCOP(C)(=S)SCC(=O)NC(C)C(=O)O (configuration not stated) | inactive: 0.548% |
| Cc1nc2ccc3ccccc3c2s1.O=[N+]([O-])c1cc([N+](=O)[O-])c(O)c([N+](=O)[O-])c1 | inactive: -1.04% |
| O=[N+]([O-])c1cccc([N+](=O)[O-])c1 | inactive: 0.589% |
| Cc1ccc([N+](=O)[O-])cc1[N+](=O)[O-] | inactive: -1.68% |
| Cc1ccc(C)c(NP(C)(=O)Oc2ccccc2)c1 (configuration not stated) | inactive: -0.856% |
| CP(=O)(Nc1ccccc1F)Oc1ccccc1 (configuration not stated) | inactive: 0.352% |
| CCC(C)(OO)OOC(C)(CC)OO (configuration not stated) | inactive: 0.401% |
| Cc1cccc([N+](=O)[O-])c1[N+](=O)[O-] | inactive: 1.4% |
| CN(C)CCOC(=O)C(O)(c1ccccc1)C1CCCCC1 (configuration not stated) | inactive: -2.36% |
| Cc1ccc([N+](=O)[O-])c([N+](=O)[O-])c1 | inactive: 0.334% |

| Compound | activity change, negative = inhibition |
| --- | --- |
| Cc1c([N+](=O)[O-])cccc1[N+](=O)[O-] | inactive: 1.13% |
| CCOP(=O)(CC)OCC | inactive: 0.92% |
| CCOP(C)(=S)SCC(=O)NC(C)(CC)C(=O)O (configuration not stated) | inactive: 1.25% |
| NNC(NN)NN.n1nc(-c2nn[nH]n2)n[nH]1 | inactive: 1.18% [at 15.4 µM] |
| CCN(CCCl)Cc1ccccc1C | inactive: -0.394% |
| Cc1ccccc1NP(C)(=O)Nc1ccccc1C | inactive: 0.481% |
| [NH4+].[O-][Cl+3]([O-])([O-])[O-] | inactive: -0.0966% |
| CP(=O)(Nc1ccc2c(c1)OCCO2)Oc1ccccc1 (configuration not stated) | inactive: 0.108% |
| CP(=O)(Oc1ccccc1)N1CCOC1=O (configuration not stated) | inactive: -1.08% |
| COc1ccccc1OP(C)(=O)Nc1c(C)n(C)n(-c2ccccc2)c1=O (configuration not stated) | inactive: -0.794% |
| OCCSCCO | inactive: 1.24% |
| N#[O+].[C-]#N.[C-]#N.[C-]#N.[C-]#N.[C-]#N.[Fe+2].[Na+].[Na+] | inactive: 2.23% |
| C/C1=C2N=C(/C=C3N=C(/C(C)=C4\[N-][C@@](C)([C@H]5N=C1[C@@](C)(CCC(=O)NC[C@H](C)OP(=O)([O-])O[C@@H]1[C@H](O)[C@H](n6cnc7cc(C)c(C)cc76)O[C@@H]1CO)[C@@H]5CC(N)=O)[C@](C)(CC(N)=O)[C@H]4CCC(N)=O)[C@@](C)(CC(N)=O)[C@@H]\3CCC(N)=O)C(C)(C)[C@@H]/2CCC(N)=O.[C-]#N.[Co+3] | inactive: -0.485% [at 34.4 µM] |
| COc1ccccc1OP(C)(=O)Nc1ccc(C)c(C)c1 (configuration not stated) | inactive: 0.539% |
| Cc1nc2ccc3ccccc3c2o1.O=[N+]([O-])c1cc([N+](=O)[O-])c(O)c([N+](=O)[O-])c1 | inactive: -1.93% |
| CP(=O)(Nc1ccccn1)Oc1ccccc1 (configuration not stated) | inactive: 1.63% |
